By UniProt entry, the sequences of proteins in these tests, tags left out. Where a name states a change or a piece, a line headed by the entry shows the natural chain unless it says otherwise.
UniProt P33533, whole entry, looked up: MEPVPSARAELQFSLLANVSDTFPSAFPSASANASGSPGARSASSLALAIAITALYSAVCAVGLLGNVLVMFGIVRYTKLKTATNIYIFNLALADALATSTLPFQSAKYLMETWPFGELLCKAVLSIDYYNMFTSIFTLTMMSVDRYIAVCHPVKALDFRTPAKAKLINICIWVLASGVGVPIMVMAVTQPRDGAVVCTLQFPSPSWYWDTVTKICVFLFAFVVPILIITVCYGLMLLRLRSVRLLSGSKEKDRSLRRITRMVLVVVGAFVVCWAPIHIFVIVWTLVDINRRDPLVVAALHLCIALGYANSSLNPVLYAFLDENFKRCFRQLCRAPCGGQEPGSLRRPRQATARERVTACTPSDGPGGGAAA
UniProt P33535, whole entry, looked up: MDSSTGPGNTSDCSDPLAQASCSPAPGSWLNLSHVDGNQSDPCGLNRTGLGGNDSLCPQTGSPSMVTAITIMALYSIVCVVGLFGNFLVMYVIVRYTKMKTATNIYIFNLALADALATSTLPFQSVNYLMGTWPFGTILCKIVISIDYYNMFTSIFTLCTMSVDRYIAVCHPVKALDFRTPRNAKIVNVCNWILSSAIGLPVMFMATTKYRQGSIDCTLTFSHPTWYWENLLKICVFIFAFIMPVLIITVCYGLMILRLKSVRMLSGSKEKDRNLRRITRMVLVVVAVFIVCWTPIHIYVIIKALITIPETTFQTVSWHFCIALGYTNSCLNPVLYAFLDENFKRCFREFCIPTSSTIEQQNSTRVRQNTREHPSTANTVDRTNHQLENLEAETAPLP
UniProt P34975: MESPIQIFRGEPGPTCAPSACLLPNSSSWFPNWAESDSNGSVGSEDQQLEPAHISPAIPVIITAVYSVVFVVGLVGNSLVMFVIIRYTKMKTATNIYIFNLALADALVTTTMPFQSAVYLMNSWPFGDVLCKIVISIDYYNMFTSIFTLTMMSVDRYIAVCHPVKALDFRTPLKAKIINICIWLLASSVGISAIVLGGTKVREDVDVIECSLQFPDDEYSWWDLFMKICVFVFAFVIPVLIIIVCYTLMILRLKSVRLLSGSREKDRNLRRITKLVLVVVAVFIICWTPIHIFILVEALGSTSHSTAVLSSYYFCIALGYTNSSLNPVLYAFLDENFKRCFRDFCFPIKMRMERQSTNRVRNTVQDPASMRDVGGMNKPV
UniProt P32300, whole entry, looked up: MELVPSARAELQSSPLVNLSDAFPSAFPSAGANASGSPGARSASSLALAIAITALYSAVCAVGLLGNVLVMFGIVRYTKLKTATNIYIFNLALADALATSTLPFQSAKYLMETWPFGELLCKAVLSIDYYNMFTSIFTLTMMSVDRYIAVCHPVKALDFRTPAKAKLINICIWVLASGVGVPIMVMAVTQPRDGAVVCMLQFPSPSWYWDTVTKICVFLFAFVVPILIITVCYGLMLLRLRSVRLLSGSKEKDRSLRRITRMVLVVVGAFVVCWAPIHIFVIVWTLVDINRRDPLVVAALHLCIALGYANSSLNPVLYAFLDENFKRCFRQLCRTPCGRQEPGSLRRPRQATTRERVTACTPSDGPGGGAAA
UniProt P97266, whole entry, looked up: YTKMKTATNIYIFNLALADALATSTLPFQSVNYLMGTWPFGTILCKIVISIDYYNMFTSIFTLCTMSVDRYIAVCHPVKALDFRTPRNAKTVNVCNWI

According to ChEMBL document CHEMBL3352706, “Novel cyclic biphalin analogue with improved antinociceptive properties” (2014):

Columns and labels:
[1] = biological target: Delta-type opioid receptor (Rattus norvegicus, UniProt P33533); assay: Displacement of [3H]Ile5,6deltorphin II from delta opioid receptor in Wistar rat brain membranes by liquid scintillation counting based competition binding assay; details: strain Wistar
Mu-type opioid receptor [2] = biological target: T1, Mu-type opioid receptor (Rattus norvegicus, UniProt P33535); assay: Displacement of [3H]DAMGO from mu opioid receptor in Wistar rat brain membranes by liquid scintillation counting based competition binding assay; details: strain Wistar
[3] = biological target: T2, Kappa-type opioid receptor (Rattus norvegicus, UniProt P34975); assay: Displacement of [3H]U69593 from kappa opioid receptor in Wistar rat brain membranes by liquid scintillation counting based competition binding assay; details: strain Wistar
[4] = biological target: T3, Delta-type opioid receptor (Mus musculus, UniProt P32300); assay: Agonist activity at mouse delta opioid receptor expressed in CHO cells by [35S]GTPgammaS binding assay
Mu-type opioid receptor [5] = biological target: T1, Mu-type opioid receptor; assay: Agonist activity at rat mu opioid receptor expressed in CHO cells by [35S]GTPgammaS binding assay
[6] = biological target: T2, Kappa-type opioid receptor; assay: Agonist activity at rat kappa opioid receptor expressed in CHO cells by [35S]GTPgammaS binding assay
[7] = biological target: T3, Delta-type opioid receptor; assay: Agonist activity at delta opioid receptor in mouse vas deferens assessed as inhibition of electrically-induced smooth muscle contraction
Mu-type opioid receptor [8] = biological target: Mu-type opioid receptor (Cavia porcellus, UniProt P97266); assay: Agonist activity at mu opioid receptor in Hartley guinea pig ileum longitudinal muscle myenteric plexus assessed as inhibition of electrically-induced smooth muscle contraction; details: strain Hartley
Mus musculus [9] = assay: Antinociceptive activity in CD1 mouse assessed as time required for maximal reduction in thermal nociception by at 0.1 nmol, icv by hot plate test
Mus musculus [10] = assay: Antinociceptive activity in CD1 mouse assessed as reduction in thermal nociception by at 0.1 nmol, icv measured 15 mins post dose by hot plate test
Mus musculus [11] = assay: Antinociceptive activity in CD1 mouse assessed as reduction in thermal nociception by measuring tail-flick latency at 0.1 nmol, icv measured 15 mins post dose by tail-flick assay; details: strain CD1, Tail
Mus musculus [12] = assay: Antinociceptive activity in CD1 mouse assessed as time required for maximal reduction in thermal nociception by measuring tail-flick latency at 0.1 nmol, icv by tail-flick assay; details: strain CD1, Tail

SMILES	Ki [1]	Ki (Mu-type opioid receptor [2])	Ki [3]	EC50 [4] [nM]	EC50 (Mu-type opioid receptor [5]) [nM]	EC50 [6]	IC50 [7] [nM]	IC50 (Mu-type opioid receptor [8]) [nM]	Time (Mus musculus [9]) [min]	MPE (Mus musculus [10]) [%]	MPE (Mus musculus [11]) [%]	Time (Mus musculus [12]) [min]
CC1(C)SSC(C)(C)[C@H](NC(=O)[C@@H](N)Cc2ccc(O)cc2)C(=O)NCC(=O)N[C@@H](Cc2ccccc2)C(=O)NNC(=O)[C@H](Cc2ccccc2)NC(=O)CNC(=O)[C@H]1NC(=O)[C@@H](N)Cc1ccc(O)cc1	Not Active	Not Active	Not Active	360	230	205 nM	–	–	–	–	–	–
C[C@@H](NC(=O)[C@@H](N)Cc1ccc(O)cc1)C(=O)NCC(=O)N[C@@H](Cc1ccccc1)C(=O)NNC(=O)[C@H](Cc1ccccc1)NC(=O)CNC(=O)[C@@H](C)NC(=O)[C@@H](N)Cc1ccc(O)cc1	–	–	283 nM	–	–	Not Active	–	–	–	–	–	–
CC1(C)SSC(C)(C)[C@@H](NC(=O)[C@@H](N)Cc2ccc(O)cc2)C(=O)NCC(=O)N[C@@H](Cc2ccccc2)C(=O)NNC(=O)[C@H](Cc2ccccc2)NC(=O)CNC(=O)[C@@H]1NC(=O)[C@@H](N)Cc1ccc(O)cc1	5.2 nM	1.9 nM	258 nM	7.1	76.2	480 nM	7.2	21	15	95	95	15
